The results in this text go back to patent US12168646B2, “Aryl hydrocarbon receptor agonists and uses thereof” (NEXYS THERAPEUTICS, INC., priority 2022, dated 2024).

pEC50: −log10 of the molar value.

For the assay, the target named is T1, AhR (Homo sapiens, UniProt P35869).
T1 construct: HT29-Lucia AhR cells were purchased from Invivogen (cat #ht21-ahr); host or cells: HT29-Lucia AhR cells
T1 sequence (P35869 11-848): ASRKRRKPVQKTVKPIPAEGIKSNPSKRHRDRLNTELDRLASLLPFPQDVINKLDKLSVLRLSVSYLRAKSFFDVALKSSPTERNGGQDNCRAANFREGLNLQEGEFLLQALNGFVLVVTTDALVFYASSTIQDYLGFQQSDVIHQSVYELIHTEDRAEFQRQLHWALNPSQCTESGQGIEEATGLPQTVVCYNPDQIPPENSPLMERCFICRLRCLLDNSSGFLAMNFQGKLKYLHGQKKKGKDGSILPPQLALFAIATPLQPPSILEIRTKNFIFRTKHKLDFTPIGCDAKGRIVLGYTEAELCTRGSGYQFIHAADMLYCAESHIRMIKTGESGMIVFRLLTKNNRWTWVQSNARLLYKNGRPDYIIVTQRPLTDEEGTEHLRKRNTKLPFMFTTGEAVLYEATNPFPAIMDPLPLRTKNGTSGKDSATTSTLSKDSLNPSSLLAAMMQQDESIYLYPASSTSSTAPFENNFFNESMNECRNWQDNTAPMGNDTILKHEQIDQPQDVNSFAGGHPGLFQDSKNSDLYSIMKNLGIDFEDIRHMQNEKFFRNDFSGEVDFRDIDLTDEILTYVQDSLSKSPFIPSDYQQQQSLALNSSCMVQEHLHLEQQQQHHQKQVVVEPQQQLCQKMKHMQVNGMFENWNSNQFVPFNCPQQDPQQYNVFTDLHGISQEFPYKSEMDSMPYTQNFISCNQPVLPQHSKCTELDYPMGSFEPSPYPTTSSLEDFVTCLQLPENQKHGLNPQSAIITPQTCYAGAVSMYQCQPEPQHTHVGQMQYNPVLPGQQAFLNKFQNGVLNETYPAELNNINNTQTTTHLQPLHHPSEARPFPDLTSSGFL
The experiment in a line: HT29 AhR Reporter Assay (HT29-Lucia AhR cells, QUANTI-Luc luminescence). Format: cell-based. On the procedure:
Biological Data 1: HT29 AhR Reporter Assay HT29-Lucia AhR cells were purchased from Invivogen (cat #ht21-ahr). […] The cell suspension was removed from growth medium and rinsed gently with pre-warmed PBS (10 mL). Pre-warmed Trypsin (1 mL) was added, and cells were held at 30° C. for about 5 min and then detached by pipette. The dissociated cell clumps were gently pipetted up and down. The cells were resuspended in pre-warmed detection medium (DMEM, 10% FBS (30 min at 56° C.), 100 U/ml penicillin, 100 μg/ml streptomycin, and test article or vehicle) and counted. A cell suspension of ˜500,000 cells/mL in Detection medium was prepared. […] Samples (20 μL/well) were pipetted into a 96-well white (opaque), and QUANTI-Luc™ (50 μL/well) was added. The plate was gently tapped and then read in a luminometer (0.1 s reading time).

Compound `Nc1cccc(-c2ccnc(Nc3ccc(C(F)(F)F)cc3)n2)c1` [Example 2, 4-(3-aminophenyl)-N-(4-(trifluoromethyl)phenyl)pyrimidin-2-amine] showed a pEC50 (HT29-Lucia AhR cells, 18-24 h, EC50 = concentration to reach half of maximum efficacy of reference compound VAF347) of more than 7.85. In addition, the Emax (read-out: HT29 AhR % efficacy) was found to be 275%.
